Rows were chosen to be rich in hits. Some 2.2% of all compounds tested hit in one or more screens of this group.
B2AR arrestin = recruits beta-arrestin to the human beta2-adrenergic receptor; 0.02% of 330,000 active; Potency, µM (titrated, usually from 46.1 µM), inactives show at the highest dose activation, most hits filed as activators; beta-arrestin recruitment to beta2AR, cell-based reporter;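 note: potency is the fitted concentration of half-maximal effect; 0% = DMSO controls and full agonism = EC100 isoproterenol or metaproterenol; nearly all actives have a fitted effect of over 65% in size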
A549 viability = kills or reduces viability of A549 cells in Nrf2 counter-screen; A549 ARE-Fluc cells, CellTiter-Fluor viability, 18-24 h; Potency, µM (doses to about 46 µM), without a hit: top-dose activity change, negative = cytotoxicity, actives largely listed as inhibitors; 0.16% of 390,000 active; AID 504648; note: potency is the fitted concentration of half-maximal effect; % is set by controls: 0 for no effect and ±100 for the full control effect
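A549 ARE-Fluc cells in 5% FBS OPTI-MEM, 5000 cells/well, rested 2 h then exposed to compounds in concentration-response for 18-24 h at 37 °C. Viability by CellTiter-Fluor fluorescence (Ex 405/Em 525) after 30 min; luciferase luminescence (BugLite, 15 min, RT) read afterwards.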
Nrf2 activator = Nrf2 pathway activation. Potency, µM (titrated, usually from 46.1 µM), without a hit: at the top dose activation, usual class: activators. 0.31% of 410,000 active. AREc32 ARE-luciferase reporter (MCF7-derived line), luminescence, 24 h; note: potency is the fitted concentration of half-maximal effect; % of control where 0% means no effect; nearly all actives have a fitted effect of over 65% in size
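Luminescent ARE reporter assay in AREc32_Fluc cells: overnight plating at 37 deg C, 24 hr compound incubation, Steady-Glo added, 30 min RT before reading.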
Nrf2 block = blocks Nrf2 signaling; A549 ARE-Fluc reporter, luciferase luminescence, 18-24 h; Potency, µM (highest dose often 46 µM), inactives show at the highest dose activity change, negative = inhibition, actives largely listed as inhibitors; 2.1% of 360,000 active; AID 504444; note: potency is the fitted concentration of half-maximal effect; % is set by controls: 0 for no effect and ±100 for the full control effect; nearly all actives have a fitted effect of over 60% in size
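In this cell-based qHTS, ARE-driven firefly luciferase in A549 cells reports Nrf2 activity; the luminescent signal after BugLite lysis is the measured value, with a prior CellTiter-Fluor read for cell health.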
miR-21 FLuc = miR-21 reporter, rising signal. HeLa miR-21 FLuc reporter, luciferase, 48 h. Potency, µM (titrated, usually from 38.3 µM), without a hit: at the top dose reporter change, positive = more light. 340,000 tested, under 10 active. AID 2288; active = well fitted rising curve with a large enough effect; inconclusive = small, poorly fitted or top-dose-only effect; inactive = no such curve, though single readings can be large or run the other way;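 also: % of control where 0% means no effect; miR-21 action dims this reporter so a rising signal means less miR-21 action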
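HeLa miR-21-FLuc reporter line, endogenous miR-21; 2000 cells/well in DMEM/10% FBS; compound titration up to ~40uM final, 48 h, 37 degree Celsius; luciferase detection reagent, 15 min lysis, CCD luminescence.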
Active calls of the source: *; ? = inconclusive; nt = no result given. Unless noted, calls come from the whole dose curve; as a rule, active = well fitted curve in the direction sought with a large enough effect; inconclusive = small, poorly fitted or top-dose-only effect, or another doubt; inactive = no such curve, though single readings can be large; an effect the other way counts as inactive or inconclusive.

Key to letters: A = B2AR arrestin; B = A549 viability; C = Nrf2 activator; D = Nrf2 block; E = miR-21 FLuc
smiles: COc1ccc([C@H](C)NC[C@H](O)c2ccc(O)c(NC=O)c2)cc1
  A = 18µM*; B = -15%; C = 0%; D = -16%; E = -24%
smiles: CC(C)NC[C@@H](O)c1ccc(O)c(O)c1
  A = nt; B = -2%; C = -1%; D = -8%; E = -18%
smiles: COc1ccc(CCn2c(=S)[nH]c(=O)c3nccnc32)cc1OC
  A = nt; B = ?; C = nt; D = 18µM*; E = nt
smiles: COc1ccc(C2c3c(ncn(CCc4ccccc4)c3=N)Oc3ccc4ccccc4c32)cc1OC (stereo unspecified)
  A = nt; B = -14%; C = nt; D = -6%; E = nt
smiles: FC(F)(F)c1ccc(C2[C@H]3CN(Cc4ccc(-c5ccccc5)cc4)[C@H](c4ccccc4)C34CC2(c2cccnc2)C4)cc1 (stereo partly specified)
  A = 0%; B = -3%; C = 5%; D = 16%; E = 7%
smiles: FC(F)(F)c1ccc(C2[C@H]3CN(Cc4cccnc4)[C@H](c4ccccc4)C34CC2(c2cccnc2)C4)cc1 (stereo partly specified)
  A = -1%; B = ?; C = -1%; D = 26µM*; E = ?
smiles: Cc1nc(C(C)Nc2ncnc3ccc(-c4ccc5c(c4)OCO5)cc23)cs1 (stereo unspecified)
  A = nt; B = -2%; C = nt; D = -12%; E = nt
smiles: CC1=NN(c2ccccc2)C(=O)/C1=C/C=C/C=C/N(C)C
  A = 0%; B = 10µM*; C = 4%; D = ?; E = 15%
smiles: S=C(Nc1ccccc1)Nc1ccc(OCc2ccc(Cl)cc2Cl)cc1
  A = 0%; B = 3%; C = -2%; D = 18µM*; E = ?
smiles: S=C(NCCSCc1ccc(Cl)cc1Cl)Nc1ccccc1
  A = 0%; B = -11%; C = 0%; D = ?; E = 22%
smiles: O=C(NCc1ccc(F)cc1)c1ccc(NC(=O)N2CC3CCCN3c3ccccc32)cc1 (stereo unspecified)
  A = nt; B = 3%; C = 3%; D = -23%; E = 2%
smiles: CCn1ccc2cc(OC)ccc2c1=S
  A = 0%; B = -14%; C = 3%; D = -13%; E = -7%
smiles: CCSc1ccc2cc(OC)ccc2[n+]1CC
  A = 0%; B = -24%; C = 0%; D = 16µM*; E = 6%
smiles: CCOc1ccc(OCC)c(NC(=O)c2csc3c2CCCC3)c1
  A = nt; B = 0%; C = 4%; D = 2%; E = -4%
smiles: CCC(C)Sc1cc(-c2nc3ccc(C)cn3c2NCc2ccccc2)ccc1OC (stereo unspecified)
  A = nt; B = 16µM*; C = -3%; D = 21µM*; E = nt
smiles: COc1ccc(-c2cc(-c3nc4ccccn4c3NCc3ccccc3)ccc2OC)cc1
  A = -4%; B = ?; C = -4%; D = 15µM*; E = nt
smiles: CCCCNc1c(-c2ccc(OC)c(SC3CCCCC3)c2)nc2ccc(C)cn12
  A = 0%; B = ?; C = -6%; D = 18µM*; E = nt
smiles: CCCCc1cc(=O)oc2cc(OCC(=O)Nc3ccccn3)ccc12
  A = 0%; B = -6%; C = 13µM*; D = -9%; E = -27%
smiles: O=C(COc1ccc2c(-c3ccccc3)cc(=O)oc2c1)Nc1ccc(CN2CCOCC2)cc1
  A = 0%; B = 7%; C = 0%; D = -8%; E = -1%
smiles: O=C(COc1ccc2c(-c3ccccc3)cc(=O)oc2c1)Nc1ccc(CCO)cc1
  A = 0%; B = -9%; C = 3%; D = 10µM*; E = 14%
smiles: Cc1cccc(C(=O)N2N=C(c3ccc(NS(C)(=O)=O)cc3)CC2c2cccs2)c1 (stereo unspecified)
  A = -1%; B = -19%; C = 3%; D = 23µM*; E = 5%
smiles: CC(C)Oc1ccc(CNC(=O)Nc2ccc3c(c2)N(C)C(=O)c2ccccc2S3)cc1
  A = nt; B = 2%; C = -1%; D = ?; E = -7%
smiles: CC(C)Sc1nc(N2CCOCC2)c2c3c(sc2n1)COC(C)(C)C3
  A = 0%; B = nt; C = 0%; D = 15µM*; E = -3%
smiles: CCN1CCN(c2nc(SC)nc3sc4c(c23)CC(C)(C)OC4)CC1
  A = 0%; B = -1%; C = 3%; D = 12%; E = -9%
smiles: O=S(=O)(c1ccc(F)cc1)N1CCN(c2nc(-c3cccs3)nc3ccccc23)CC1
  A = nt; B = -4%; C = nt; D = ?; E = nt
smiles: Cc1ccccc1NC(=O)N1CCCC(c2nc(-c3ccc(C(C)C)cc3)no2)C1 (stereo unspecified)
  A = 0%; B = ?; C = -1%; D = 5.8µM*; E = 20%
smiles: Cc1nc(S(=O)(=O)N2CCOCC2)c(C#N)c(C)c1Cl
  A = 0%; B = -18%; C = ?; D = -25%; E = -1%
smiles: Cc1nc(S(=O)(=O)NC2CCCCC2)c(C#N)c(C)c1Cl
  A = -1%; B = -9%; C = 13µM*; D = -9%; E = 4%

Already shown: entries from further up.
Key to letters: A = B2AR arrestin; B = A549 viability; C = Nrf2 activator; D = Nrf2 block; E = miR-21 FLuc
smiles: Cc1ccccc1NC(=O)N1CCCC(c2nc(-c3ccc(C(C)C)cc3)no2)C1 (stereo unspecified)
  A = 0%; B = ?; C = -1%; D = 5.8µM*; E = 20%
smiles: Cc1nc(S(=O)(=O)N2CCOCC2)c(C#N)c(C)c1Cl
  A = 0%; B = -18%; C = ?; D = -25%; E = -1%
smiles: Cc1nc(S(=O)(=O)NC2CCCCC2)c(C#N)c(C)c1Cl
  A = -1%; B = -9%; C = 13µM*; D = -9%; E = 4%

Screens: PubChem, National Center for Advancing Translational Sciences (NCATS)
